Measured values taken from patent publication US20250082635A1 (Janssen Pharmaceutica NV, priority 2023, published 2025).

Tests used:
[1] = for AUClast, Ratio of Geometric Means / AUC∞, Ratio of Geometric Means / Cmax, Ratio of Geometric Means / mean AUClast compared to normal hepatic function / AUClast compared to normal hepatic function, based on GMR / Cmax compared to normal hepatic function, based on GMR / AUC∞ compared to normal hepatic function, based on GMR: total; for mean AUClast compared to normal hepatic function / mean AUClast,unbound compared to normal hepatic function / mean AUC∞,unbound compared to normal hepatic function / mean Cmax,unbound compared to normal hepatic function: arithmetic means
[2] = clinical; conditions: both, human, in vivo, po, 10 mg
[3] = dose normalized moderate hepatic impairment (Cohort 3) versus normal hepatic function (Cohort 1)
[4] = dose normalized moderate hepatic impairment vs normal
[5] = mild hepatic impairment (Cohort 2) versus normal hepatic function (Cohort 1)
[6] = mild hepatic impairment vs normal

SMILES	AUClast, Ratio of Geometric Means [1, 3] [%]	AUC∞, Ratio of Geometric Means [1, 3] [%]	Cmax, Ratio of Geometric Means [1, 3] [%]	AUClast,unbound, Ratio of Geometric Means [1, 3] [%]	AUC∞,unbound, Ratio of Geometric Means [1, 3] [%]	Cmax,unbound, Ratio of Geometric Means [1, 3] [%]	mean AUClast compared to normal hepatic function [1, 4]	mean AUClast,unbound compared to normal hepatic function [1, 4] [fold]	mean AUC∞,unbound compared to normal hepatic function [1, 4] [fold]	AUClast compared to normal hepatic function, based on GMR [1, 4] [fold]	AUC∞,unbound compared to normal hepatic function, based on GMR [1, 4] [fold]	AUClast, Ratio of Geometric Means [1, 5] [%]	AUC∞, Ratio of Geometric Means [1, 5] [%]	Cmax, Ratio of Geometric Means [1, 5] [%]	AUClast,unbound, Ratio of Geometric Means [1, 5] [%]	AUC∞,unbound, Ratio of Geometric Means [1, 5] [%]	Cmax,unbound, Ratio of Geometric Means [1, 5] [%]	mean AUClast compared to normal hepatic function [1, 6]	mean AUClast,unbound compared to normal hepatic function [1, 6] [fold]	mean AUC∞,unbound compared to normal hepatic function [1, 6] [fold]	also measured
Cc1nc(N2CC3CN(C(=O)c4c(F)cccc4-n4nccn4)CC3C2)nc(C)c1O (stereo not shown) [M16]	79.68	83.00	64.69	182.46	190.05	148.13	0.71 fold	1.83	1.91	~0.80	~1.90	100.62	99.38	77.40	124.96	123.42	96.12	comparable	1.36	1.35	mean Cmax,unbound compared to normal hepatic function [1, 4]: 1.58 fold; Cmax compared to normal hepatic function, based on GMR [1, 4]: approximately 0.65 fold; mean Cmax,unbound compared to normal hepatic function [1, 6]: comparable; AUClast compared to normal hepatic function, based on GMR [1, 6]: ~1.01 fold; AUC∞ compared to normal hepatic function, based on GMR [1, 6]: ~0.99 fold; Cmax compared to normal hepatic function, based on GMR [1, 6]: approximately 0.77 fold; AUC∞,unbound compared to normal hepatic function, based on GMR [1, 6]: ~1.23 fold
Cc1cc(CO)nc(N2CC3CN(C(=O)c4c(F)cccc4-n4nccn4)CC3C2)n1 (stereo not shown) [M12]	102.84	103.51	79.13	218.90	220.33	168.44	comparable	2.18	2.20	~1.03	~2.20	171.17	171.38	111.23	198.26	198.51	128.83	1.80 fold	2.18	2.20	AUC∞ compared to normal hepatic function, based on GMR [1, 4]: ~1.04 fold; AUClast,unbound compared to normal hepatic function, based on GMR [1, 4]: ~2.19 fold; Cmax,unbound compared to normal hepatic function, based on GMR [1, 4]: ~1.68 fold; AUClast compared to normal hepatic function, based on GMR [1, 6]: ~1.71 fold; AUC∞ compared to normal hepatic function, based on GMR [1, 6]: ~1.71 fold; AUClast,unbound compared to normal hepatic function, based on GMR [1, 6]: ~1.98 fold; Cmax,unbound compared to normal hepatic function, based on GMR [1, 6]: ~1.29 fold; AUC(0-inf) [2]: 1290 ng·h/mL

Where two headings read alike, the source gives them in different places.
